Experimental data published in patent US5712265A (The General Hospital Corporation, priority 1995, dated 1998).

Key:
[1] = Synergistic effect of M1 antagonist and D2 agonist: body fat and glucose tolerance test (Example 5); type: in vivo, female Syrian Hamster; settings: for body fat pad wt / body wt: daily for eight weeks, bromocriptine 200 μg/animal, methscopolamine 20 mg/kg, pirenzepine 20 mg/kg; for body wt: 9 HALO; for AUC/Glucose / AUC/Insulin: glucose tolerance test, 2.0 g/kg i.p., after eight weeks
[2] = Synergistic effect of M1 antagonist and prolactin inhibitor: body fat (Example 6); type: in vivo, female Syrian Hamster; settings: i.p. eight weeks, bromocriptine 200 μg/animal, methscopolamine 1 mg/kg; for body wt: 9 HALO
[3] = tested on: muscarinic receptors expressed in pancreatic islet cells; settings: cited from earlier work

## C[N+]1(C)[C@@H]2C[C@@H](OC(=O)[C@H](CO)c3ccccc3)C[C@H]1[C@@H]1O[C@@H]12 [methyl scopolamine]
[1]
  body fat pad wt: 7.2 ± 0.4 g
  body wt: 206 ± 6 g
  AUC/Glucose: 495 ± 31 mg % (hr)
  AUC/Insulin: 373 ± 26 μU/ml (hr)
[2]
  body fat pad wt: 5.8 ± 0.4 g
  body wt: 201 ± 9 g
[3]; insulin treatment of STZ rats
  binding after insulin treatment: lowered
[3]; non-diabetic rats, fasting
  binding to pancreatic islet cells after fasting: decreased
[3]; streptozotocin-induced diabetes
  enhancement of binding to islets of STZ-diabetic rats vs normal cells: 80%

## CC(C)C[C@H]1C(=O)N2CCC[C@H]2[C@]2(O)O[C@](NC(=O)[C@@H]3C=C4c5cccc6[nH]c(Br)c(c56)C[C@H]4N(C)C3)(C(C)C)C(=O)N12 [bromocriptine]
[1]
  body fat pad wt: 6.0 ± 0.4 g
  body wt: 182 ± 9 g
  AUC/Glucose: 474 ± 36 mg % (hr)
  AUC/Insulin: 265 ± 80 μU/ml (hr)
[2]
  body fat pad wt: 5.2 ± 0.4 g
  body wt: 184 ± 7 g
